From PMC6785039 (Nature, 2019)

Test system: THP-1 cells
Assay type: cell-based, human
Details: SLC19A1-depleted THP-1 or U937 cells

B1: hIFN-β: human interferon-β (PeproTech) (protein, UniProt P01574 22-187, looked up)
Interferon beta: MSYNLLGFLQRSSNFQCQKLLWQLNGRLEYCLKDRMNFDIPEEIKQLQQFQKEDAALTIYEMLQNIFAIFRQDSSSTGWNETIVENLLANVYHQINHLKTVLEEKLEKEDFTRGKLMSSLHLKRYYGRILHYLKAKEYSHCAWTIVRVEILRNFYFINRLTGYLRN
- reporter response in SLC19A1-depleted cells: responded normally
